Screens (PubChem BioAssay)
Compounds with a hit are over-represented: about 1.3% of the library has one in this group of screens.
INS-1E GSIS act: GLuc luminescence reporter in INS-1E cells, primary screen for activators of glucose-dependent secretion of insulin | INS-1E GLuc reporter insulin secretion, 2-3 h | activation, % at 16.6 µM | 370,000 tested, 0.61% active | AID 743287;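 active = lowest replicate activation of at least 40%, so every replicate reaches that level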
SR-BI uptake up: activators of SR-BI mediated HDL lipid uptake | 320,000 tested, 0.096% active | CHO ldlA[mSR-BI] cells, DiI-HDL uptake fluorescence, 3 h; 100 = double the neutral-control signal | activation, % at 12.5 µM;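 active = mean replicate activation of at least 60% and every replicate at or above 60%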
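Assay system: CHO ldlA[mSR-BI] cells, LDL receptor-null, SR-BI overexpressing; medium: Ham's F12 with 0.5% BSA, HEPES 25 mM, pH 7.4; also added: DiI-HDL 10 µg/mL; timing: 3 h uptake period with compound, 37 °C; signal: DiI fluorescence, bottom read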
Yeast UUG start: modulators of start codon recognition fidelity in yeast; AID 602363; activity score, % at 18.7 µM; S. cerevisiae UUG-firefly luciferase reporter, luminescence/redox ratio; 0.13% of 350,000 active;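 active = replicate mean at a twofold rise or more, about +100% in these data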;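 note: firefly luciferase made from a UUG start codon reports start codon fidelity; reporter light over untreated wells divided by growth signal over untreated wells; some hits fall short of that in this replicate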
SR-BI HDL uptake: blocks mouse SR-BI lipid uptake from DiI-HDL; ldlA[mSR-BI] CHO cells, DiI-HDL uptake fluorescence, 3 h; Q61009; 320,000 tested, 0.96% active; inhibition, % at 12.5 µM;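 active = mean replicate inhibition of at least 70% and a set share of replicates each scoring 70 or more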
Large screens that a line does not name were inactive.

COCC(=O)Nc1ccc2c(c1)C(=O)N(C)[C@H]1CC[C@@H](CC(=O)NCCc3ccncc3)O[C@@H]1CO2	none (no result: SR-BI uptake up, SR-BI HDL uptake)
c1ccn(-c2ncnc3sc4c(c23)CCCC4)c1	none (no result: INS-1E GSIS act)
c1nc(N2CCOCC2)c2c3c(sc2n1)CCCC3	INS-1E GSIS act 41
CCc1ccc(/C=C/C(=O)C2C(=O)c3ccccc3C2=O)cc1	none (no result: Yeast UUG start)
CC[N+]1(C)CCC(O)(/C=C/c2ccccc2)C(C(=O)/C=C/c2ccccc2)C1 (stereo unspecified)	INS-1E GSIS act 80 (no result: Yeast UUG start)
CCCNC(=O)Nc1ccc2c(c1)OC[C@@H](C)N(CCC(F)(F)F)C[C@H](C)[C@@H](OC)CN(C)C2=O	none (no result: SR-BI uptake up, Yeast UUG start, SR-BI HDL uptake)
COc1cc(C(=O)Nc2cc(C(F)(F)F)ccc2N2CCOCC2)ccc1OCC(=O)N1CCOCC1	INS-1E GSIS act 50 (no result: Yeast UUG start)
COc1ccc(OC)c(NC(=O)c2ccc(OCC(=O)N3CCOCC3)c(OC)c2)c1	SR-BI HDL uptake 73
CC(=O)c1c(C)[nH]c(C(=O)OCC(=O)Nc2cc(C(F)(F)F)ccc2N2CCOCC2)c1C	SR-BI HDL uptake 72 (no result: INS-1E GSIS act)
COc1ccc(-c2ocnc2C(=O)Nc2ccc(N3CCOCC3)cc2N2CCOCC2)cc1OC	INS-1E GSIS act 85 (no result: SR-BI uptake up, SR-BI HDL uptake)
O=C(COC(=O)/C=C/c1ccc(F)cc1)Nc1cc(C(F)(F)F)ccc1N1CCOCC1	none (no result: Yeast UUG start)
COc1ccccc1-c1ocnc1C(=O)Nc1ccc(N2CCOCC2)cc1N1CCOCC1	none
CCOc1ccccc1NC(=O)c1ccc(OCC(=O)N2CCOCC2)c(OC)c1	none
CC(=O)Nc1ccc(/C(C)=N/Nc2nc(Nc3ccccc3)nc(N3CCOCC3)n2)cc1	SR-BI HDL uptake 85 (no result: Yeast UUG start)
CC(=O)c1ccc(Nc2nc(N3CCOCC3)nc(N3CCOCC3)n2)cc1	none
Cc1ccc(Nc2nc(N/N=C\c3ccc4c(c3)OCO4)nc(N3CCOCC3)n2)cc1	SR-BI HDL uptake 86
COc1c(C(=O)Nc2ccc3[nH]c(=O)[nH]c3c2)cc2ccccc2c1Br	SR-BI HDL uptake 78 (no result: Yeast UUG start)
COc1ccccc1C(=O)NC(=S)Nc1ccc2[nH]c(=O)[nH]c2c1	INS-1E GSIS act 45 (no result: SR-BI uptake up, SR-BI HDL uptake)
COc1c(C(=O)Nc2ccc(CN3CCOCC3)cc2)cc2ccccc2c1Br	none
CCCCCC[N+](C)(C)CCSSCC[N+](C)(C)CCCCCC	none
CCCCCCCCCCCCCCCC[N+](C)(C)CC	INS-1E GSIS act 298
CCCCCC(=O)Nc1nc(C)c(-c2csc(Nc3ccccc3OC)n2)s1	none
COc1ccc(Cl)cc1Nc1nc(-c2sc(NC(=O)c3ccco3)nc2C)cs1	SR-BI HDL uptake 89
CCC(C)C(=O)Nc1nc(C)c(-c2csc(Nc3cc(OC)ccc3OC)n2)s1 (stereo unspecified)	SR-BI HDL uptake 80
COc1ccc(OC)c(Nc2nc(-c3sc(NC(=O)CC(C)C)nc3C)cs2)c1	SR-BI HDL uptake 76
COc1ccc(OC)c(Nc2nc(-c3sc(NC(=O)C(C)(C)C)nc3C)cs2)c1	SR-BI HDL uptake 81
COc1ccc(OC)c(Nc2nc(-c3sc(C)nc3C)cs2)c1	none (no result: INS-1E GSIS act)
COc1ccc(Cl)cc1Nc1nc(-c2sc(NC(=O)C(C)(C)C)nc2C)cs1	none
CCC(C)C(=O)Nc1nc(C)c(-c2csc(Nc3cc(Cl)ccc3OC)n2)s1 (stereo unspecified)	SR-BI HDL uptake 72
CO[C@@H]1CN(C)C(=O)c2ccc(NC(=O)C3CC3)cc2OC[C@@H](C)N(Cc2cccc(F)c2)C[C@H]1C	none (no result: SR-BI uptake up, Yeast UUG start, SR-BI HDL uptake)
C[C@@H]1CN([C@H](C)CO)C(=O)c2cc(-c3cncnc3)cnc2O[C@H]1CN(C)C(=O)CN1CCOCC1	none (no result: SR-BI uptake up, Yeast UUG start, SR-BI HDL uptake)
COc1ccc(S(=O)(=O)Nc2ccccc2OC)cc1N=Nc1c(O)[nH]c(=S)[nH]c1=O	INS-1E GSIS act 99
COc1ccc(S(=O)(=O)Nc2ccc3c(c2)C(=O)N([C@@H](C)CO)C[C@H](C)[C@@H](CN(C)S(=O)(=O)c2ccc(OC)cc2)O3)cc1	none (no result: SR-BI uptake up, SR-BI HDL uptake)
O=[N+]([O-])c1ccccc1N/N=C/c1c[nH]c2ccccc12	SR-BI HDL uptake 110 (no result: INS-1E GSIS act)
O=[N+]([O-])c1ccc(N/N=C/c2c[nH]c3ccccc23)cc1	SR-BI HDL uptake 92 (no result: INS-1E GSIS act)
COc1ccc(NS(=O)(=O)c2cc([N+](=O)[O-])ccc2N/N=C\c2c(C)[nH]c3ccccc23)cc1	none
COc1ccccc1NS(=O)(=O)c1cc([N+](=O)[O-])ccc1N/N=C/c1c[nH]c2ccccc12	SR-BI HDL uptake 83 (no result: INS-1E GSIS act)
O=C(N/N=C/c1c[nH]c2ccccc12)c1cccc([N+](=O)[O-])c1	none
Cc1[nH]c2ccccc2c1/C=N/Nc1ccc([N+](=O)[O-])cc1S(=O)(=O)Nc1ccc(Cl)cc1	SR-BI HDL uptake 83
C[C@@H]1CCCCO[C@@H](CN(C)Cc2ccccc2)[C@H](C)CN([C@@H](C)CO)C(=O)c2cc(NC(=O)Nc3ccc(C(F)(F)F)cc3)ccc2O1	none (no result: SR-BI uptake up, SR-BI HDL uptake)
CC(C)NC(=O)Nc1ccc2c(c1)C(=O)N([C@@H](C)CO)C[C@H](C)[C@@H](CN(C)S(=O)(=O)c1cn(C)cn1)OCCCC[C@@H](C)O2	none (no result: SR-BI uptake up, SR-BI HDL uptake)
COc1ccc2c3c([nH]c2c1)[C@H](CO)N(C)CC31CN(S(=O)(=O)c2cn(C)cn2)C1	none (no result: SR-BI uptake up, Yeast UUG start, SR-BI HDL uptake)
CCCN1C[C@@H](C)[C@H](OC)CN(C)C(=O)c2ccc(NC(=O)c3cccc(F)c3)cc2OC[C@@H]1C	none (no result: SR-BI uptake up, SR-BI HDL uptake)
C[C@@H](NC(=O)C[C@H]1C=C[C@@H](NC(=O)Nc2ccc3c(c2)OCO3)[C@@H](CO)O1)c1ccccc1	none (no result: SR-BI uptake up, Yeast UUG start, SR-BI HDL uptake)
CCCNC(=O)N(C)C[C@@H]1Oc2cc(-c3cncnc3)ccc2S(=O)(=O)N([C@H](C)CO)C[C@H]1C	none (no result: SR-BI uptake up, Yeast UUG start, SR-BI HDL uptake)
O=C/C=C/c1c(-c2ccccc2)cc2oc3ccccc3cc1-2	SR-BI HDL uptake 100
Nc1ccc(-c2cc3ccccc3oc2=O)cc1	none
COc1ccc(OC)c(Nc2c3c(nc4ccccc24)CCC3)c1	none
COc1ccccc1Nc1c2c(nc3ccc(N)cc13)CCCC2	INS-1E GSIS act 65
O=[N+]([O-])c1ccccc1Sc1nccn1Cc1ccccc1	INS-1E GSIS act 54
COc1ccc(C)c2sc(=NC(=O)c3ccccc3)n(C)c12	SR-BI HDL uptake 74 (no result: INS-1E GSIS act)
C[C@H]1CN([C@@H](C)CO)C(=O)CCCn2cc(nn2)CO[C@H]1CN(C)Cc1ccncc1	none (no result: SR-BI uptake up, Yeast UUG start, SR-BI HDL uptake)
COC(=O)c1cc(OC)c(OC)cc1NC(=O)Nc1ccccc1OC	none (no result: INS-1E GSIS act)
CCOC(=O)c1oc2ccccc2c1NC(=O)c1ccco1	INS-1E GSIS act 49
CCOC(=O)c1oc2ccccc2c1NC(=O)c1cccc(OC)c1OC	SR-BI HDL uptake 77
COC(=O)c1cc(OC)c(OC)cc1NC(=O)c1cccc(OC)c1OC	SR-BI HDL uptake 72 (no result: Yeast UUG start)
CCOC(=O)c1oc2ccccc2c1NC(=O)c1cccc(OC)c1	none
Cn1cnc(S(=O)(=O)N2CC[C@@H]3[C@@H](CO)Nc4ccc(-c5ccccc5)cc4[C@@H]32)c1	none (no result: SR-BI uptake up, SR-BI HDL uptake)
C[C@H](CO)N1C[C@H](C)[C@H](CN(C)C(=O)C2CCCCC2)Oc2cc(C3=CCCCC3)ccc2S1(=O)=O	none (no result: SR-BI uptake up, SR-BI HDL uptake)
COC(=O)c1cccc(N/C=C(\[N+](=O)[O-])S(=O)(=O)c2ccccc2)c1	INS-1E GSIS act 51
C[C@@H]1CCCCO[C@@H](CN(C)Cc2ccccc2)[C@@H](C)CN([C@@H](C)CO)C(=O)c2cc(NC(=O)Cc3ccccc3)ccc2O1	none (no result: SR-BI uptake up, SR-BI HDL uptake)
